These results are taken from the Kinase Knowledgebase extract (Sharma et al. 2016).

This experiment concerns the target CDK2 (UniProt P24941). The experiment in a line: Enzyme Assay.

A value given as a limit tells only on which side of the number the result lay.

For orientation: IC50 means the concentration at which inhibition is half-maximal. The low end stands for inhibition by little substance, the high end for a need for much substance. `O=C(Cc1ccc(N2CCCCC2)cc1)Nc1n[nH]c2ccc(N3CCCS3(=O)=O)cc12` registered a concentration for half-maximal inhibition (IC50) of less than 50 nM.
